Laboratory results published in patent publication US20100249205A1 (ARIZONA BOARD OF REGENTS, priority 2005, published 2010).

Experiments:
C57BL6 mice = assay: In-vivo toxicity in mice, intraperitoneal daily for 4 days; conditions: percent decrease in lymphocyte counts relative to wortmannin as 1.0; at maximum tolerated dose or highest dose tested
Description: The proliferation of cells may be dependent on the PI-3 kinase-Akt-mTOR signaling pathway. In addition, signaling through PI-3 kinase and Akt appears to inhibit apoptosis. […] The MTT assay is a standard colorimetric assay for measuring cellular proliferation (cell growth). It is universally used to determine cytotoxicity of potential medicinal agents and other toxic materials. Yellow MTT (3-(4,5-Dimethylthiazol-2-yl)-2,5-diphenyltetrazolium bromide) is reduced to purple formazan in the mitochondria of living cells. This reduction takes place only when mitochondrial reductase enzymes are active, and therefore conversion is directly related to the number of viable (living) cells. […] Toxicities are measured at the maximum tolerated dose or the highest dose tested. […] Alanine aminotranferease (ALT) and aspartate aminotransferase (AST) are enzymes located in liver cells that leak out into the general circulation when liver cells are injured. […] A low liver toxicity and a high lymphocyte toxicity as a surrogate for inhibition of tumor cell growth is the desirable feature.

PI-3 kinase = format: biochemical; conditions: read-out: PI-3 kinase inhibition IC50

Structure (SMILES)	Lymphocyte toxicity relative to wortmannin (C57BL6 mice)	IC50 (PI-3 kinase)
COCC1OC(=O)C(=CN2CCCC2)C2=C(O)C(=O)C3=C(C(OC(C)=O)CC4(C)C(=O)CCC34)C21C (stereo not drawn) [PX-867, Acetic acid 6-hydroxy-1α-methoxymethyl-10β,13β-dimethyl-3,7,17-trioxo-4-pyrrolidin-1-yl-methylene-1,3,4,7,10,11β,12,13,14α,15,16,17-dodecahydro-2-oxa-cyclopenta[α]phenanthren-11-yl]	2.4	–
COC[C@H]1OC(=O)c2coc3c2[C@@]1(C)C1=C(C3=O)[C@@H]2CCC(=O)[C@@]2(C)C[C@H]1OC(C)=O [Wortmannin, wortmannin, reference compound]	–	0.3 nM
